Test results from patent US9662390B2, “Use of opioid antagonists to attenuate endothelial cell proliferation and migration” (THE UNIVERSITY OF CHICAGO, priority 2005, dated 2017).

Tested on: Human Microvascular Endothelial Cells (HMVEC)
Type: cell-based

SMILES | antagonist dose as low as which morphine-based migration was attenuated | morphine concentration as low as which endothelial cell migration is induced | morphine concentration that causes endothelial cell migration
C[N+]1(CC2CC2)CCC23c4c5ccc(O)c4OC2C(=O)CCC3(O)C1C5 (stereo not drawn) [MNTX, N-methylnaltrexone] | 10^−8 μM | – | –
CN1CC[C@]23c4c5ccc(O)c4O[C@H]2[C@@H](O)C=C[C@H]3[C@H]1C5 [morphine] | – | 10^−7 M | 100 ng/mL
